The results in this text go back to PubChem BioAssay AID488862 (Broad Institute, 2010).

The entries are a selection whose mix differs from that of the whole data set. Calls of active or inactive are those of the source. No stated cut-off is given here; in the data, active means inhibition above about 52%; inactive means the rest.

A short description of this experiment: suppresses PrP 5' UTR mRNA reporter expression (AID 488862). Further: 0 = median of the neutral control wells. Particulars: cell-based PrP 5' UTR mRNA reporter, plate reader; stronger effect = higher value; concentration not given here.
`CCC(=O)N(c1ccccc1)C1(COC)CCN(CCn2nnn(CC)c2=O)CC1`: the inhibition was inactive: -4.41%.

For `CCC(=O)N(c1ccccc1)C1(COC)CCN(CCc2cccs2)CC1`, the inhibition was inactive: -28.3%.
